Structures are written as SMILES.

The series relates to microbiota present in the faecal samples. Kind of series: Faecal fermentation, distribution of oligosaccharides (HPAEC-PAD peak areas). The note with it: Example 2 sample, 0 h. The source says: HPAEC-PAD (high performance anion exchange chromatography) equipped with a PA-1 column was used for separation of mono- and oligosaccharides of the different samples. […] The samples as used for GPC were 100-fold diluted with DMSO before injection.
The distribution of oligosaccharides in the mixtures was also monitored over this time period using the method described above in relation to Table 2.

`OC[C@H]1O[C@@H](O[C@H]2[C@@H](O)[C@@H](CO)O[C@@H](O[C@H]3[C@@H](O)[C@@H](CO)O[C@@H](O[C@H]4[C@H](O)[C@@H](O)C(O)O[C@@H]4CO)[C@@H]3O)[C@@H]2O)[C@H](O)[C@@H](O)[C@H]1O` (stereo partly drawn) [Cpd. ID 31, D-Gal-(β1-3)-D-Gal-(β1-3)-D-Gal-(β1-4)-D-Glu] gave a Peak areas of 12.3.

Source of the values: US20250197436A1, “GALACTOOLIGOSACCHARIDE COMPOSITION” (priority 2022, published 2025).
